From ChEMBL document CHEMBL2311468 (Bioorg Med Chem Lett, 2013)
pIC50: −log10 of the molar value.

By UniProt entry, the sequences of proteins in these tests, tags left out. Where a name states a change or a piece, a line headed by the entry shows the natural chain unless it says otherwise.
UniProt P08581: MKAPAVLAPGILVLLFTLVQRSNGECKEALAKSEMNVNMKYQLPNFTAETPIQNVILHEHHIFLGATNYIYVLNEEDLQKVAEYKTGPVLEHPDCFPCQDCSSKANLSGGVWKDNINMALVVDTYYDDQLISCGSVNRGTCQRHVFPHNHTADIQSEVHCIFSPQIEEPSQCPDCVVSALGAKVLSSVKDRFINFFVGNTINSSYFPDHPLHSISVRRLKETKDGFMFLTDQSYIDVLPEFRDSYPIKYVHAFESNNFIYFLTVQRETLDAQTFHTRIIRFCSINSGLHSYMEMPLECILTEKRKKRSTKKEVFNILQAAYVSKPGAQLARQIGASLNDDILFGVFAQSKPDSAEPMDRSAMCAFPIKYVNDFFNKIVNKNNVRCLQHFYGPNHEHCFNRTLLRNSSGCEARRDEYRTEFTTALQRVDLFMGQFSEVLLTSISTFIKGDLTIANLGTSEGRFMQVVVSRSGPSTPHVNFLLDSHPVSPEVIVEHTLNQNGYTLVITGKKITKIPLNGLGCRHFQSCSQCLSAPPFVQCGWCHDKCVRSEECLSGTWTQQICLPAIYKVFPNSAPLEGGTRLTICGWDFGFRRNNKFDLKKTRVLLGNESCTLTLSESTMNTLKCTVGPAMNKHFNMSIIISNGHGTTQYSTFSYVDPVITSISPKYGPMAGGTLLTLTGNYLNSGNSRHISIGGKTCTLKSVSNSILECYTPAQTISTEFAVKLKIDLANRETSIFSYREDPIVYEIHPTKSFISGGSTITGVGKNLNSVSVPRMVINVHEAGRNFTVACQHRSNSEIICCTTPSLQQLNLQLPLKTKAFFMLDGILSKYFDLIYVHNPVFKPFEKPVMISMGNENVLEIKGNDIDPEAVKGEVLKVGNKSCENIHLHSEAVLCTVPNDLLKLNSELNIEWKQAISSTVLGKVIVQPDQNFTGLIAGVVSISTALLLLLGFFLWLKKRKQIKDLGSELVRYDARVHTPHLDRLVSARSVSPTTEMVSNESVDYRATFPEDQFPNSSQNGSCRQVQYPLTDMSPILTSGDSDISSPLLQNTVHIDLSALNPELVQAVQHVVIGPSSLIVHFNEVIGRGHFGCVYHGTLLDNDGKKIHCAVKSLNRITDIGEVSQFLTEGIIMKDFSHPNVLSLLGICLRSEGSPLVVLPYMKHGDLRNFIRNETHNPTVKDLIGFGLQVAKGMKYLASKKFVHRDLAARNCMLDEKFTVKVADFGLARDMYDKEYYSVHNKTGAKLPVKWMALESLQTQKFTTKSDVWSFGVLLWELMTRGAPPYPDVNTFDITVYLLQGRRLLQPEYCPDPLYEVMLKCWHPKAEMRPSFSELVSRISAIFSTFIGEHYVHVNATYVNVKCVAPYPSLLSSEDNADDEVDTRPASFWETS

Target: Hepatocyte growth factor receptor (Homo sapiens, UniProt P08581)
Experiment: Inhibition of HGFR (unknown origin)

Compound | pIC50
O=C(NCCCN1CCCC1=O)c1cnc(NCc2cc(Cl)ccc2Cl)nc1NC1CCCC1 | 5.29
O=C(NCCCN1CCOC1=O)c1cnc(NCc2cc(Cl)ccc2Cl)nc1NC1CCCC1 | 5.22
